These results are taken from patent US20080096951A1, “Carvedilol Monocitrate Monohydrate” (SB Pharmo Puerto Rico Inc., priority 2002, published 2008).

This data set can be described thus: Solubility in water (shaken vials, UV-Vis analysis of carvedilol concentration). The settings on record: for pH of the filtered solution / Aqueous Solubility: water, 25° C.; for Aqueous Solubility: expressed as mg of carvedilol free base/mL of solution. The protocol: Glass vials containing water and excess amount of carvedilol salts were shaken by a mechanical shaker at ambient conditions. Aliquots were taken out at various time-point, filtered through 0.45 μm Acrodisc GHP filter. The pH of the filtered solutions was measured and suitable dilution was performed prior to UV-Vis analysis of carvedilol concentration.

Usually Aqueous Solubility stands for how much of the substance goes into solution per volume. Low readings indicate a poorly soluble substance, high ones a readily soluble substance. Turning to “carvedilol monocitrate monohydrate [Carvedilol Mono-Citrate salt]”, the “pH value when dissolved in water” value (dissolved in water) is about 3. The “pH of the filtered solution” value reads like this: (1 hr) 3.5; (4 hr) 3.4; (24 hr) 3.0; (48 hr) 3.0. The “Aqueous Solubility” value is 1630 µg/mL (1 hr), 1470 µg/mL (4 hr) and 1070 µg/mL (24 hr).
